Only a part is listed here, and it is no random draw. Records with an inconclusive call do not appear. The source made the active and inactive calls. Calls follow the shape of the dose curve; as a rule, active = well fitted inhibition curve with a large enough effect; inconclusive = small, poorly fitted or top-dose-only effect, or another doubt; inactive = no such curve, though single readings can be large or run the other way.
molecular target: Vitamin D3 receptor (Homo sapiens) (UniProt P11473); assay: Inhibitors of the vitamin D receptor (VDR): qHTS; settings: VDR-SRC2-3 peptide fluorescence polarization, 2 h; active compounds read low
% is scaled to controls: 0 for no effect and ±100 for the full control effect.

Protein sequences, listed by entry. Tags and fused reporters are not part of them.
UniProt P11473, whole entry: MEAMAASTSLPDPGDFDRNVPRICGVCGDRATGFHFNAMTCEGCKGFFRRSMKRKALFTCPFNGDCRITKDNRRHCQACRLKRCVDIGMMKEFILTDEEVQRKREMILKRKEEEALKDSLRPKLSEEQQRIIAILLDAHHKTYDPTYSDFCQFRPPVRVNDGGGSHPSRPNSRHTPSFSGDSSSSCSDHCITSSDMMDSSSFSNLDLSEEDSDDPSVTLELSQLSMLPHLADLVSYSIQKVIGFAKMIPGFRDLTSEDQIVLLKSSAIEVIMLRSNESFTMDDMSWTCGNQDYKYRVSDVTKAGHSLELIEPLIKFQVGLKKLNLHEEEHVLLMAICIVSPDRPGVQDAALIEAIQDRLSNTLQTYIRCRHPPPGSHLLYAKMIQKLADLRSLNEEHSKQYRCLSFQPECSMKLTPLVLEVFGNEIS

Q: With `CCCOc1ccc(C(=O)NCC2(N(C)C)CCCCC2)cc1` as the molecule, how does the max response, negative = inhibition read?
A: inactive: 14.6%

Q: How did the max response, negative = inhibition turn out when `O=C(O)C1(Nc2ccccc2)CCN(Cc2ccccc2)CC1` was run?
A: inactive: 18.9%

Q: For `CN1CCC(Nc2ccc(F)c(Cl)c2)CC1`, which max response, negative = inhibition is on record?
A: inactive: 1.3%

Q: How did the max response, negative = inhibition turn out when `CCOc1ncccc1C(=O)NCC1(N2CCOCC2)CCCCC1` was run?
A: inactive: 3.03%

Q: With `CN1CCC(Nc2ccc(Cl)cc2)CC1` as the molecule, how does the max response, negative = inhibition read?
A: inactive: -10.7%

Q: With `CCC(CO)(C(=O)OC1CN2CCC1CC2)c1ccccc1` (stereo not given) as the molecule, how does the max response, negative = inhibition read?
A: inactive: -18.9%

Q: For `COc1cc(OC)cc(C(=O)NCC2(N3CCOCC3)CCCCC2)c1`, which max response, negative = inhibition is on record?
A: inactive: 4.28%

Q: `COc1cccc(C(=O)N(c2cc(C)cc(C)c2)C2CCN(C(=O)OC(C)(C)C)CC2)c1` was tested. Which max response, negative = inhibition did it give?
A: inactive: -5.07%

Q: Which max response, negative = inhibition does the source give for `Cc1ccc(NC2(C#N)CCN(Cc3ccccc3)CC2)cc1` here?
A: inactive: 6.57%

Q: With `Fc1ccccc1NC1CCN(Cc2ccccc2)CC1` as the molecule, how does the max response, negative = inhibition read?
A: inactive: -1.64%

Q: `Cc1ccc(C(=O)NCC2(N3CCCCC3)CCCCC2)o1` was tested. Which max response, negative = inhibition did it give?
A: inactive: -4.94%

Q: How did the max response, negative = inhibition turn out when `COc1cc(OC)cc(C(=O)NCC2(N3CCCCC3)CCCCC2)c1` was run?
A: inactive: 6.72%

Q: `CC(=O)N(c1ccccc1)C1CCNCC1` was tested. Which max response, negative = inhibition did it give?
A: inactive: 22.6%

Q: For `CN(C)C1(CNC(=O)c2ccc(C(C)(C)C)cc2)CCCCC1`, which max response, negative = inhibition is on record?
A: inactive: 20%

Q: How did the max response, negative = inhibition turn out when `Cn1c(=O)[nH]cc(N(CCCl)CCCl)c1=O` was run?
A: inactive: 7.22%

Q: `CN(C)c1ccc(C(=O)NCC2(N3CCCCC3)CCCCC2)cc1` was tested. Which max response, negative = inhibition did it give?
A: inactive: -14.3%

Q: Which max response, negative = inhibition does the source give for `CC(C)(C)c1ccc(C(=O)NCC2(N3CCOCC3)CCCCC2)cc1` here?
A: inactive: 10.7%

Q: How did the max response, negative = inhibition turn out when `O=C(NCC1(N2CCCCC2)CCCCC1)c1ccco1` was run?
A: inactive: 4.53%

Q: With `Cc1ccccc1C(=O)NCC1(N(C)C)CCCCC1` as the molecule, how does the max response, negative = inhibition read?
A: inactive: 1.93%

Q: Which max response, negative = inhibition does the source give for `CCN1CCC(Nc2cccc(F)c2)CC1` here?
A: inactive: -0.372%

Q: Which max response, negative = inhibition does the source give for `Cc1ccccc1NC1(C#N)CCN(Cc2ccccc2)CC1` here?
A: inactive: -0.346%

Q: Which max response, negative = inhibition does the source give for `CCOC(=O)C(CC)C1=NC(C)(C)Cc2ccccc21.O=[N+]([O-])c1cc([N+](=O)[O-])c(O)c([N+](=O)[O-])c1` (stereo not given) here?
A: inactive: -9.15%

Q: How did the max response, negative = inhibition turn out when `O=C(NCC1(N2CCOCC2)CCCCC1)c1ccc([N+](=O)[O-])cc1` was run?
A: inactive: 11.2%

Q: `CC(C)(C)OC(=O)N1CCC(N(C(=O)c2ccccc2)c2ccc(Cl)cc2)CC1` was tested. Which max response, negative = inhibition did it give?
A: inactive: 12.4%

Q: How did the max response, negative = inhibition turn out when `N#Cc1ccc(C(=O)NCC2(N3CCCCC3)CCCCC2)cc1` was run?
A: inactive: 4.21%

Q: `O=C(NCC1(N2CCOCC2)CCCCC1)c1ccccc1[N+](=O)[O-]` was tested. Which max response, negative = inhibition did it give?
A: inactive: 15%

Q: With `CCCN1CCC(Nc2cc(OC)cc(OC)c2)CC1` as the molecule, how does the max response, negative = inhibition read?
A: inactive: 5.37%

Q: Which max response, negative = inhibition does the source give for `Cc1cc(N(CCCl)CCCl)ccc1C=O` here?
A: inactive: -23.5%

Q: `O=C(NCC1(N2CCOCC2)CCCCC1)c1ccccc1` was tested. Which max response, negative = inhibition did it give?
A: inactive: 18.1%

Q: Which max response, negative = inhibition does the source give for `c1ccc(CN2CCC(Nc3ccccc3)CC2)cc1` here?
A: inactive: -1.79%

Q: With `CN(C)C1(CNC(=O)c2cccc(C#N)c2)CCCCC1` as the molecule, how does the max response, negative = inhibition read?
A: inactive: -7.61%

Q: For `COc1cc(C(=O)NCC2(N3CCOCC3)CCCCC2)cc(OC)c1C`, which max response, negative = inhibition is on record?
A: inactive: 6.41%

Q: How did the max response, negative = inhibition turn out when `O=C(O)c1cccc(Nc2c([N+](=O)[O-])cc([N+](=O)[O-])cc2[N+](=O)[O-])c1` was run?
A: inactive: 4.97%

Q: How did the max response, negative = inhibition turn out when `O=C(OC1CN2CCC1CC2)C1c2ccccc2C=Cc2ccccc21` (stereo not given) was run?
A: inactive: 3.21%

Q: With `CCc1cc(C(=O)NCC2(N3CCCCC3)CCCCC2)sc1C` as the molecule, how does the max response, negative = inhibition read?
A: inactive: 1.57%

Q: `N/C(=N\O)c1c(N)no[n+]1[O-]` was tested. Which max response, negative = inhibition did it give?
A: inactive: -2.62%

Q: With `CCOC(=O)N1CCC(Nc2ccc(C)cc2)CC1` as the molecule, how does the max response, negative = inhibition read?
A: inactive: -15.4%

Q: How did the max response, negative = inhibition turn out when `O=C(NCC1(N2CCOCC2)CCCCC1)c1cc(F)c(F)cc1Cl` was run?
A: inactive: -1.12%

Q: How did the max response, negative = inhibition turn out when `COc1cc(OC)c(C(=O)NCC2(N(C)C)CCCCC2)cc1OC` was run?
A: inactive: 5.8%

Q: Which max response, negative = inhibition does the source give for `O=[N+]([O-])c1cc([N+](=O)[O-])c(OC2CCCCC2O)c([N+](=O)[O-])c1` (stereo not given) here?
A: inactive: 8.11%

Q: With `CN(C)c1cccc(C(=O)NCC2(N3CCCCC3)CCCCC2)c1` as the molecule, how does the max response, negative = inhibition read?
A: inactive: 14.9%

Q: How did the max response, negative = inhibition turn out when `COc1ccc(CN(CCCl)CCCl)cc1Cl` was run?
A: inactive: 3.56%

Q: With `CC(C)c1ccc(NC2CCN(C(=O)OC(C)(C)C)CC2)cc1` as the molecule, how does the max response, negative = inhibition read?
A: inactive: -6.03%

Q: For `CCCOc1ccc(C(=O)NCC2(N(C)C)CCCCC2)cc1OC`, which max response, negative = inhibition is on record?
A: inactive: 8.41%

Q: How did the max response, negative = inhibition turn out when `CCCCOc1ccccc1C(=O)NCC1(N2CCOCC2)CCCCC1` was run?
A: inactive: 12.1%

Q: Which max response, negative = inhibition does the source give for `O=C(NCC1(N2CCCCC2)CCCCC1)c1cncc(Br)c1` here?
A: inactive: -10.9%

Q: With `CN1CCC(Nc2cccc(F)c2)CC1` as the molecule, how does the max response, negative = inhibition read?
A: inactive: 0.918%

Q: For `O=C(OC1CN2CCC1CC2)c1ccc([N+](=O)[O-])cc1` (stereo not given), which max response, negative = inhibition is on record?
A: inactive: -9.14%

Q: `CSc1ccc(C(=O)NCC2(N3CCOCC3)CCCCC2)cc1` was tested. Which max response, negative = inhibition did it give?
A: inactive: -14.1%

Q: For `O=C(NCC1(N2CCCCC2)CCCCC1)c1cccc([N+](=O)[O-])c1`, which max response, negative = inhibition is on record?
A: inactive: -5.74%

Q: With `CCOc1ccc(C(=O)NCC2(N3CCOCC3)CCCCC2)cc1` as the molecule, how does the max response, negative = inhibition read?
A: inactive: 19.5%

Q: `N#CC1(Nc2ccccc2)CCN(CCc2ccccc2)CC1` was tested. Which max response, negative = inhibition did it give?
A: inactive: 8.17%

Q: With `CCN1CCC(Nc2ccc(Cl)cc2)CC1` as the molecule, how does the max response, negative = inhibition read?
A: inactive: -6.51%

Q: For `O=C(NCC1(N2CCCCC2)CCCCC1)c1ccc(OC(F)F)cc1`, which max response, negative = inhibition is on record?
A: inactive: 11.2%

Q: How did the max response, negative = inhibition turn out when `CN1CCN(CCOC(=O)C(O)(c2ccccc2)c2ccccc2)CC1` was run?
A: inactive: -3.49%

Q: Which max response, negative = inhibition does the source give for `COc1ccc(NC2CCN(C(=O)OC(C)(C)C)CC2)cc1` here?
A: inactive: -12.5%

Q: With `CC(C)c1ccc(C(=O)NCC2(N3CCOCC3)CCCCC2)cc1` as the molecule, how does the max response, negative = inhibition read?
A: inactive: 0.519%

Q: For `COc1cc(C(=O)NCC2(N3CCCCC3)CCCCC2)ccc1OC(F)F`, which max response, negative = inhibition is on record?
A: inactive: 9.94%

Q: With `O=C(NCC1(N2CCOCC2)CCCCC1)c1cc(=O)[nH]c2ccccc12` as the molecule, how does the max response, negative = inhibition read?
A: inactive: -3.28%

Q: With `CCCOc1cccc(C(=O)NCC2(N3CCOCC3)CCCCC2)c1` as the molecule, how does the max response, negative = inhibition read?
A: inactive: -1.69%

Q: How did the max response, negative = inhibition turn out when `O=C(NCC1(N2CCCCC2)CCCCC1)c1cccc(C(F)(F)F)c1` was run?
A: inactive: 8.62%

Q: With `O=[N+]([O-])c1cc([N+](=O)[O-])c(NCC2CCS(=O)(=O)C2)c([N+](=O)[O-])c1` (stereo not given) as the molecule, how does the max response, negative = inhibition read?
A: inactive: 0.508%

Q: Which max response, negative = inhibition does the source give for `COc1ccc(NC2CCN(CCc3ccccc3)CC2)c(OC)c1` here?
A: inactive: -16.5%

Q: Which max response, negative = inhibition does the source give for `CCOC(=O)N1CCC(Nc2ccc(F)cc2)CC1` here?
A: inactive: 8.6%

Q: For `O=C(NCC1(N2CCCCC2)CCCCC1)c1ccc(F)cc1`, which max response, negative = inhibition is on record?
A: inactive: -6.44%

Q: Which max response, negative = inhibition does the source give for `COc1ccccc1C(=O)NCC1(N2CCOCC2)CCCCC1` here?
A: inactive: 13.6%

Q: Which max response, negative = inhibition does the source give for `CCOc1ccc(C)cc1CN(CCCl)CCCl` here?
A: inactive: -0.513%

Q: How did the max response, negative = inhibition turn out when `O=C(NCC1(N2CCOCC2)CCCCC1)c1ccc(Cl)cc1` was run?
A: inactive: -3.13%

Q: `COc1cc(C(=O)NCC2(N(C)C)CCCCC2)ccc1OC(F)F` was tested. Which max response, negative = inhibition did it give?
A: inactive: -11.8%

Q: With `CCOC(=O)N1CCC(Nc2cccc(C)c2)CC1` as the molecule, how does the max response, negative = inhibition read?
A: inactive: 3.72%

Q: How did the max response, negative = inhibition turn out when `Cc1cccc(NC2(C#N)CCN(Cc3ccccc3)CC2)c1` was run?
A: inactive: -8.85%

Q: With `CSc1ccccc1C(=O)NCC1(N2CCCCC2)CCCCC1` as the molecule, how does the max response, negative = inhibition read?
A: inactive: 9.67%

Q: For `O=C(NCC1(N2CCCCC2)CCCCC1)c1cccs1`, which max response, negative = inhibition is on record?
A: inactive: 4.85%

Q: For `O=C(NCC1(N2CCCCC2)CCCCC1)c1ccc(=O)[nH]c1`, which max response, negative = inhibition is on record?
A: inactive: 2.79%

Q: With `COc1ccc(C(=O)NCC2(N3CCCCC3)CCCCC2)c(OC)c1OC` as the molecule, how does the max response, negative = inhibition read?
A: inactive: 4.05%

Q: Which max response, negative = inhibition does the source give for `CC(C)(C)OC(=O)N1CCC(N(C(=O)c2ccccc2)c2ccc(F)cc2)CC1` here?
A: inactive: -5.71%

Q: For `CCOC(=O)N1CCC(Nc2ccc(OC)cc2)CC1`, which max response, negative = inhibition is on record?
A: inactive: -9.28%

Q: Which max response, negative = inhibition does the source give for `O=C1C(O)=C([N+](=O)[O-])C(=O)C(O)=C1[N+](=O)[O-]` here?
A: inactive: -6.76%

Q: Which max response, negative = inhibition does the source give for `COc1ccc(Cl)cc1C(=O)NCC1(N2CCOCC2)CCCCC1` here?
A: inactive: 5.1%

Q: Which max response, negative = inhibition does the source give for `O=C(OC1CN2CCC1CC2)C1c2ccccc2Oc2ccccc21` (stereo not given) here?
A: inactive: -4.5%

Q: With `N#CC1(Nc2ccccc2)CCN(Cc2ccccc2)CC1` as the molecule, how does the max response, negative = inhibition read?
A: inactive: -6.68%

Q: Which max response, negative = inhibition does the source give for `O=C(NCC1(N2CCCCC2)CCCCC1)c1ccc(Cl)s1` here?
A: inactive: 8.84%

Q: Which max response, negative = inhibition does the source give for `O=C(NCC1(N2CCOCC2)CCCCC1)c1cc2ccccc2o1` here?
A: inactive: 7.85%

Q: How did the max response, negative = inhibition turn out when `Cc1cc(C)cc(N(C(=O)c2ccccc2)C2CCN(C(=O)OC(C)(C)C)CC2)c1` was run?
A: inactive: 0.441%

Q: `O=C(NCC1(N2CCCCC2)CCCCC1)c1ccc(Cl)nc1` was tested. Which max response, negative = inhibition did it give?
A: inactive: -13.8%
